Where a name gives a salt, the structure may show the parent alone.
Legend:
estrogen synthesis = test: Estrogen synthesis inhibition in rats (uterine weight and ovarian steroid concentrations); type: in vivo, female Wistar rats; conditions: ovaries
Protocol: Immature female Wistar rats (45-55 grams) were divided into control and test groups of 2-8 animals each. Test compounds were administered for seven days either daily by gavage in corn oil or as a component of the diet. Control animals received either corn oil or diet without the test compound. Beginning on the fourth day of the test, all animals treated with the test compound and one half of the control animals were given a subcutaneous injection of 1.0 mg of testosterone propionate in corn oil. The remaining control animals received only an equivalent volume of corn oil. On the seventh day of the test, rats treated with testosterone propionate were injected subcutaneously with 100 μCi of [^3 H]-testosterone in 50 μl of 3:1 (v/v) saline-ethanol.
After two hours, the animals were killed by decapitation. Uteri were isolated, trimmed of extraneous connective tissue, and weighed. […] In the control animals treated with testosterone propionate, estrogens produced by aromatization stimulated the uterus resulting in an increase in weight.
Ovaries from rats treated with [^3 H]-testosterone were excised, cleaned of extraneous tissue, and homogenized in 2.5 ml of a 1.0 mM potassium phosphate buffer containing 3.0 mM MgCl2.6H2 O, 320 mM sucrose, and 0.25% Triton X-100 (polyethylene glycol p-isooctyl phenyl ether, Rohm and Haas) at pH 6.5. The ovarian steroids were extracted with 1.5 ml of 9:1 (v/v) toluene/ethanol to which had been added 25 to 100 mcg each of unlabelled estradiol, estriol, and estrone, and approximately 1000 dpm of [^14 C]-estradiol. The samples were vortexed, centrifuged at 500×g for 10 minutes, and the organic phase was transferred to a conical vial. Two additional extractions were performed on the residue in the same way. The pooled organic extracts were evaporated for subsequent thin-layer chromatography.
Ovarian proteins were precipitated by the addition of 5.0 ml of ethanol to the remaining aqueous phase. After an overnight incubation at 4° C., the samples were centrifuged at 1500×g for 10 minutes. The supernatant was discarded, and the pellet was dissolved in 0.3N potassium hydroxide. Protein was determined according to the method of Bradford, Analytical Biochemistry, 72, 248 (1976).
The organic residue from each above extraction was redissolved in 9:1 (v/v) dichloromethane/methanol. The solution of each sample was applied to separate silica gel thin layer chromatography plates which contained a fluorescent indicator. The plates were developed in the first dimension with 160:38:1.5:0.5 (v/v/v/v) dichloromethane/ethyl acetate/methanol/acetic acid to within 3 cm of the top of the plate. After air-drying, the plate was developed in the second dimension with 180:19:1 (v/v/v) dichloromethane/methanol/ammonium hydroxide. The plate was air-dried and viewed under 254 nm UV light.
The visible spots were marked and the plates were sprayed with primulin (0.001% in 4:1 v/v acetone/water) according to the method of Wright, J. Chromatography, 59, 220 (1971) which allowed for the identification of additional steroids under 365 nm UV light. The spots were scraped from the plate using a glass wool plugged Pasteur pipet attached to a vacuum line. The steroids were eluted directly into scintillation vials by the addition of 0.2 ml of dichloromethane followed by two washes each of 2.0 ml of methanol. The organic solvent was evaporated and 10.0 ml of scintillation fluid (Beckman Ready Solv-NA) was added to the vials. Samples were analyzed by liquid scintillation spectrometry. Corrections were made based on the recoveries of the [^14 C]-steroid. Steroid concentrations are expressed as femtomoles per milligram protein.

aromatase = target: T1, aromatase (Rattus norvegicus, UniProt P22443); test: Aromatase inhibition in the rat ovarian microsome assay; type: biochemical; conditions: EC50: concentration required to achieve 50% inhibition of aromatase activity
T1 construct: ovarian microsomes are obtained from rats treated with pregnant mares serum gonadotropin; from tissue; host or cells: ovarian microsomes of rats treated with pregnant mares serum gonadotropin
T1 sequence (P22443 1-508): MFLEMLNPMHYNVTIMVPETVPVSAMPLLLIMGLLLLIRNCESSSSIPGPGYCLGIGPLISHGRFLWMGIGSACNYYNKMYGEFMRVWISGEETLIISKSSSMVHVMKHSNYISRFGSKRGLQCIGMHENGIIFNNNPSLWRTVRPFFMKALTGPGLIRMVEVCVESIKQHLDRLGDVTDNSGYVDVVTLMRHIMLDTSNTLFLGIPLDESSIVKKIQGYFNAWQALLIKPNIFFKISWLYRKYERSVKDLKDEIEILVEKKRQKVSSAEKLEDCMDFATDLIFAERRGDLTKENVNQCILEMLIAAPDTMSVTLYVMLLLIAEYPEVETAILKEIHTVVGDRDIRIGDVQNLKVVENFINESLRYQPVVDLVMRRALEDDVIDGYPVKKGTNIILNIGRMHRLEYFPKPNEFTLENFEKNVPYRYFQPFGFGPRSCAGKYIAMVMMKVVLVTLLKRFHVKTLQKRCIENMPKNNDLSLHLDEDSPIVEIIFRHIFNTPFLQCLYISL

[1] = 30 ppm in feed (approximately 3 mg/kg/day)
[2] = 300 ppm in feed (approximately 30 mg/kg/day)

SMILES | Mean Steroid Concentration, estrone (estrogen synthesis; [1]) | Mean Steroid Concentration, estradiol (estrogen synthesis; [1]) | Mean Steroid Concentration, estriol (estrogen synthesis; [1]) | Mean Steroid Concentration, estradiol (estrogen synthesis; [2]) | Mean Steroid Concentration, estriol (estrogen synthesis; [2]) | Mean Steroid Concentration, estrone (estrogen synthesis; [2]) | EC50 (aromatase) [µM]
Clc1ccc(C(c2ccccc2)n2ccnc2)cc1 (centres unmarked) [1-[(4-chlorophenyl)phenylmethyl]-1H--imidazole] | 0.19 femtomoles per milligram of protein | – | – | – | – | – | –
COc1ccccc1C(c1ccccc1)n1ccnc1 (centres unmarked) [1-[(2-methoxyphenyl)phenylmethyl]-1H--imidazole nitrate] | 1.53 femtomoles per milligram of protein | 1.31 femtomoles per milligram of protein | 1.22 femtomoles per milligram of protein | 1.93 femtomoles per milligram of protein | 2.07 femtomoles per milligram of protein | 0.68 femtomoles per milligram of protein | –
Clc1ccc(C(c2ccc(Cl)cc2)n2ccnc2)cc1 [1-[bis(4-chlorophenyl)methyl]imidazole] | – | 0.00 femtomoles per milligram of protein | 0.40 femtomoles per milligram of protein | 0.00 femtomoles per milligram of protein | 0.40 femtomoles per milligram of protein | 0.08 femtomoles per milligram of protein | –
c1ccc2cc(Cn3ccnc3)ccc2c1 [1-(2-naphthalenylmethyl)-1H--imidazole hydrochloride] | – | – | – | – | – | – | 0.27
Clc1ccc(C(c2ccc(Cl)cc2)(c2cncnc2)n2ccnc2)cc1 [5-[bis(4-chlorophenyl)-1H--imidazol-1-ylmethyl]pyrimidine] | 0.45 femtomoles per milligram of protein | 0.87 femtomoles per milligram of protein | 1.87 femtomoles per milligram of protein | 0.59 femtomoles per milligram of protein | 3.27 femtomoles per milligram of protein | 0.57 femtomoles per milligram of protein | –
Clc1ccc(C(c2ccc(Cl)cc2)n2cnnc2)cc1 [4-[bis(4-chlorophenyl)methyl]-4H--1,2,4-triazole] | 0.10 femtomoles per milligram of protein | – | – | – | – | – | –

— patent publication US4755526A, “Method of inhibiting aromatase” (Eli Lilly and Company, priority 1984, dated 1988)
